These results are taken from patent US20080182822A1, “Liquid Pharmaceutical Compositions Comprising a Bisphosphonate Compound” (Besins Healthcare SA, priority 2006, published 2008).

For the series the following is noted: rat, dermal (Group 2), necropsy Day 8, Mean.

For `NCCCC(O)(P(=O)(O)O)P(=O)(O)O` [14C-alendronate], the “Recovery from Treated Skin, Amount in Skin Sample” value is 5.26 µg.
